This note sets out measurements from ChEMBL document CHEMBL1137531, “Structure-based design and synthesis of (5-arylamino-2H-pyrazol-3-yl)-biphenyl-2',4'-diols as novel and potent human CHK1 inhibitors” (J Med Chem, 2007).

By UniProt entry, the sequences of proteins in these tests, tags left out. Where a name states a change or a piece, a line headed by the entry shows the natural chain unless it says otherwise.
UniProt P23443: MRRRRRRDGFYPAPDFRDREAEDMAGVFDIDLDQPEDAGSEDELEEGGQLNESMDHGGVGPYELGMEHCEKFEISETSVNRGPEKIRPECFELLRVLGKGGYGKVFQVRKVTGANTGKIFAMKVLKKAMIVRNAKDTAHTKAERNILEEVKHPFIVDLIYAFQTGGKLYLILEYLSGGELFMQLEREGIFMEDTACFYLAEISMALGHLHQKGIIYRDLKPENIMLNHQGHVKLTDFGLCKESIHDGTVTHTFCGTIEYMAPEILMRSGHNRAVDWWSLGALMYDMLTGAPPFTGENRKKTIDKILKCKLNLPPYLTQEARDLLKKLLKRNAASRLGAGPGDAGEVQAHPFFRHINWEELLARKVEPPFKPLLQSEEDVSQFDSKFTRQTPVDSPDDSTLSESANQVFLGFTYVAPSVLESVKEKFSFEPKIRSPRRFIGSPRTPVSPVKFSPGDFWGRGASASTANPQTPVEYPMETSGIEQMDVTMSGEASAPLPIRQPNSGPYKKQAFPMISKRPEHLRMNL

In general, IC50 refers to the point on the concentration scale where inhibition reaches its midpoint. A high value points to a need for much substance.

Some results are limits rather than exact numbers.

The assay concerns the target Ribosomal protein S6 kinase beta-1 (Homo sapiens, UniProt P23443). The assay can be described thus: Inhibition of p70S6K.

Regarding `CC(C)NCc1ccc(Nc2cc(-c3ccc(-c4ccc(O)cc4O)cc3)[nH]n2)cc1`, the IC50 is > 30 µM.
